In the supplement of paper PMC12137928 one finds IC50 cell viability and efficacy data, which are given here for one molecule.

Structures are written as SMILES.

Experiment [1] deals with HCT116. To be noted: 72 h. The procedure, abridged: (§1)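 HCT116 cells were seeded at 250 per well in 1536-well plates with 5 h allowed for attachment. CellTiter-Glo luminescence was normalized against vehicle (0%) and positive control (-100%) before pattern correction. The IC50 and maximal efficacy figures derive from four-parameter Hill fits.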
For experiment [2], the system named is HCT116. In words: efficacy (maximum % inhibition of viability vs DMSO); higher = more cytotoxic. Particulars: 72 h. The method in brief: as §1

For the molecule `COc1cc(Br)c(C[N+]2(CCOCCC3CCC4CC3C4(C)C)CCOCC2)cc1OC` (centres undefined) [Pinaverium bromide], the IC50 cell viability in experiment [1] (ICRF193 0 nM) is 29.1 µM; in experiment [1] (ICRF193 200 nM) it was 16.4 µM. The efficacy was determined as 99.4% in experiment [2] (ICRF193 0 nM) and 108% in experiment [2] (ICRF193 200 nM).
